Earlier results on one substance are cited in patent US7605179B2, “Napthoquinone derivatives as inhibitors of tau aggregation for the treatment of alzheimer's and related neurodegenerative disorders” (Wista Laboratories Ltd., priority 2001, dated 2009).

This data set deals with cultured CNS neurones. Conditions: in the range 10 nM—1 μM; cited from earlier work.

In the case of menaquinone [Compound K2], the survival promoting effects result is “prominent survival promoting effects”.
